Experimental findings from patent US20250248980A1, “IMMUNE MODULATORY AGENTS” (PRESIDENT AND FELLOWS OF HARVARD COLLEGE, priority 2022, published 2025) are described below.

This experiment concerns the target TNF-a receptor (TNF-R1 reporter cells) (Homo sapiens, UniProt P19438). Briefly: TNF-a-receptor GFP reporter cell screen. The following applies: reducing TNF-a-receptor reporter activities; maximal effect at high compound concentrations.

`COc1ccc(C(C)C)cc1S(=O)(=O)NCCNc1ccncc1C`: the Emax (as a rule, the greatest response seen or fitted, relative to the assay's reference) is listed as 29%.

Molecule `Cc1cccnc1NC(=O)CCN(C)CCc1nc2cc(F)ccc2[nH]1` displayed an Emax of 51%.
